Test results as given in patent US6875777B2, “Compounds” (AstraZeneca AB, priority 1999, dated 2005).

How the values were obtained:
HDELTA = HDELTA (Homo sapiens, UniProt P41143); assay: HDELTA agonist potency and efficacy (EC50, % EMAX); conditions: for EC50: read-out: HDELTA EC50
[1] = target: cloned human δ receptor (HDELTA) (Homo sapiens, UniProt P41143); assay: Binding assay on membranes of human 293S cells expressing cloned human δ receptor (HDELTA); conditions: read-out: HDELTA, quantity and unit inferred

Row | SMILES | HDELTA % EMAX (HDELTA) [%] | EC50 (HDELTA) [nM] | IC50 [1] [nM]
1 | CCN(CC)C(=O)c1ccc(N(c2cccc(O)c2)C2CCN(Cc3c[nH]cn3)CC2)cc1 | 105.52 | 14.1 | 1.61
2 | CCN(CC)C(=O)c1ccc(N(c2cccc(O)c2)C2CCN(Cc3ccncc3)CC2)cc1 | 114.6 | 3.92 | 1.02
3 | CCN(CC)C(=O)c1ccc(N(c2cccc(O)c2)C2CCN(Cc3nccn3C)CC2)cc1 | 87.74 | 13.3 | 1.71
4 | CCN(CC)C(=O)c1ccc(N(c2cccc(O)c2)C2CCN(Cc3ccccc3)CC2)cc1 [Example 1] | 105.4 | 0.61 | 0.436
5 | CCN(CC)C(=O)c1ccc(N(c2cc(O)ccc2F)C2CCN(Cc3ccccc3)CC2)cc1 [Example 6, N,N-diethyl-4-[(2-fluoro-5-hydroxyphenyl)[1-(phenylmethyl)-4-piperidinyl]amino]-benzamide] | 107.1 | 0.21 | 0.466
6 | CCN(CC)C(=O)c1ccc(N(c2cccc(O)c2)C2CCN(Cc3ccoc3)CC2)cc1 [Example 15, N,N-diethyl-4-[[1-(3-furanylmethyl)-4-piperidinyl](3-hydroxyphenyl)amino]-benzamide] | 104.82 | 0.22 | 0.221
7 | CCN(CC)C(=O)c1ccc(N(c2cccc(O)c2)C2CCN(Cc3ccsc3)CC2)cc1 [Example 16, N,N-diethyl-4-[(3-hydroxyphenyl)[1-(3-thienylmethyl)-4-piperidinyl]amino]-benzamide] | 96.86 | 0.22 | 0.271
8 | CCN(CC)C(=O)c1ccc(N(c2cccc(O)c2)C2CCN(Cc3ccc(I)cc3)CC2)cc1 [Example 19, N,N-diethyl-4-[(3-hydroxyphenyl)[1-[(4-iodophenyl)methyl]-4-piperidinyl]amino]-benzamide] | 103.63 | 1.26 | 1.3
9 | CCN(CC)C(=O)c1ccc(N(c2cccc(O)c2)C2CCN(Cc3ccc(Br)cc3)CC2)cc1 [Example 20, N,N-diethyl-4-[[1-[(4-bromophenyl)methyl]-4-piperidinyl](3-hydroxyphenyl)amino]-benzamide] | 99.86 | 0.98 | 1.32
10 | CCN(CC)C(=O)c1ccc(N(c2cccc(O)c2)C2CCN(Cc3ccc(Cl)cc3)CC2)cc1 [Example 21, N,N-diethyl-4-[[1-[(4-chlorophenyl)methyl]-4-piperidinyl](3-hydroxyphenyl)amino]-benzamide] | 98.72 | 1.52 | 0.987
11 | CCN(CC)C(=O)c1ccc(N(c2cccc(O)c2)C2CCN(Cc3ccc(F)cc3)CC2)cc1 [Example 22, N,N-diethyl-4-[[1-[(4-fluorophenyl)methyl]-4-piperidinyl](3-hydroxyphenyl)amino]-benzamide] | 109.06 | 1.23 | 2.13
12 | CCN(CC)C(=O)c1ccc(N(c2cccc(O)c2)C2CCN(Cc3ccc(Cl)cc3Cl)CC2)cc1 [Example 23, 4-[[1-[(2,4-dichlorophenyl)methyl]-4-piperidinyl](3-hydroxyphenyl)amino]-N,N-diethyl-benzamide] | 98.85 | 0.4 | 1.44
13 | CCN(CC)C(=O)c1ccc(N(c2cccc(O)c2)C2CCN(Cc3cccc(F)c3)CC2)cc1 [Example 24, N,N-diethyl-4-[[1-[(3-fluorophenyl)methyl]-4-piperidinyl](3-hydroxyphenyl)amino]-benzamide] | 92.31 | 2.63 | 0.704
14 | CCN(CC)C(=O)c1ccc(N(c2cccc(O)c2)C2CCN(Cc3ccccc3F)CC2)cc1 [Example 25, N,N-diethyl-4-[[1-[(2-fluorophenyl)methyl]-4-piperidinyl](3-hydroxyphenyl)amino]-benzamide] | 111.21 | 1.13 | 0.763
15 | CCN(CC)C(=O)c1ccc(N(c2cccc(O)c2)C2CCN(Cc3ccc(C)cc3)CC2)cc1 [Example 26, N,N-diethyl-4-[(3-hydroxyphenyl)[1-[(4-methylphenyl)methyl]-4-piperidinyl]amino]-benzamide] | 104.65 | 1.14 | 0.641
16 | CCN(CC)C(=O)c1ccc(N(c2cccc(O)c2)C2CCN(Cc3ccco3)CC2)cc1 [Example 27, N,N-diethyl-4-[[1-(2-furanylmethyl)-4-piperidinyl](3-hydroxyphenyl)amino]-benzamide] | 101.34 | 1.29 | 0.416
17 | CCN(CC)C(=O)c1ccc(N(c2cccc(O)c2)C2CCN(Cc3cccs3)CC2)cc1 [Example 28, N,N-diethyl-4-[(3-hydroxyphenyl)[1-(2-thienylmethyl)-4-piperidinyl]amino]-benzamide] | 106.46 | 0.7 | 0.651
18 | CCN(CC)C(=O)c1ccc(N(c2cccc(O)c2)C2CCN(Cc3ncc[nH]3)CC2)cc1 [Example 29, N,N-diethyl-4-{3-hydroxy[1-(1H-imidazol-2-ylmethyl)-4-piperidinyl]anilino}benzamide] | 118.27 | 1.17 | 0.3
19 | CCN(CC)C(=O)c1ccc(N(c2cccc(O)c2)C2CCN(Cc3ccccn3)CC2)cc1 [Example 30, N,N-diethyl-4-{3-hydroxy[1-(2-pyridinylmethyl)-4-piperidinyl]anilino}benzamide] | 95.88 | 0.26 | 0.24
